Tests used:
Conditions in all cases: room temperature
KDM4E = biological target: T1, KDM4E (Homo sapiens, UniProt B2RXH2); assay: LC-MS demethylation activity assay, KDM4E; type: biochemical
T1 construct: KDM4DM1-L359,[39]; KDM4EM1-R336,[30]; His6 (N); made in house; host or cells: Escherichia coli
T1 sequence (B2RXH2 1-336): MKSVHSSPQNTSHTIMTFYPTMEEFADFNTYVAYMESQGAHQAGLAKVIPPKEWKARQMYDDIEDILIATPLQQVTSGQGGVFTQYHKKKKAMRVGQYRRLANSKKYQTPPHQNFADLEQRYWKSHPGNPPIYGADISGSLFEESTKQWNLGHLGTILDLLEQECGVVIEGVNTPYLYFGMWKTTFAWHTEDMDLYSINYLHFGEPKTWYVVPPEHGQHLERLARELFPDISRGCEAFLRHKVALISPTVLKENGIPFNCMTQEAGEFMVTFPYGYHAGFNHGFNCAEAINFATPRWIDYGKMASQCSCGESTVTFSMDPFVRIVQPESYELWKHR
Description: (§1) The substrate specificity of JmjC KDMs for H1 was examined using liquid chromatography coupled to mass spectrometry (LC-MS) assays. The H1 peptides (10 μM) were incubated with the recombinant KDM (2 μM) in HEPES buffer at pH 7.5 at room temperature for 2 h, in the presence of ferrous(II) ammonium sulfate (FAS, 10 μM), sodium ascorbate (LAA, 100 μM) and 2OG (20 μM), and then quenched with formic acid. N^ε-Methylated H3K9 and H3K36 peptides were used as positive controls (Fig. 3–5 and Fig. S2–S6).[26]
(§2) The catalytic domains of the JmjC KDMs used were recombinantly produced as reported in either Escherichia coli (KDM4AM1-L359,[38] KDM4DM1-L359,[39] KDM4EM1-R336,[30] KDM6BD1141–E1590[40] and KDM3CL2157-L2500) or Sf9 cells (KDM3AT515–S1317, KDM3B882–1761, and KDM5DM1-D775) as N-terminally His6-tagged proteins. […] To produce proteins, DNA sequences encoding for KDM3A, KDM3B and KDM5D were inserted into the pFB-LIC vector, containing a TEV-protease cleavable N-terminal 6x-histidine tag via ligation independent cloning (LIC). The resultant plasmids were transformed into baculovirus and Sf9 cells ([…]) which were infected with the virus stock. The cells were grown at 27 °C and 90 rpm for 70 h. Cells were then harvested and suspended in 100 mL of lysis buffer (50 mM HEPES-NaOH, pH 7.4, 500 mM NaCl, 20 mM imidazole, 0.5 mM Tris (2-carboxyethyl)phosphine (TCEP), 5% (v/v) glycerol). […] The supernatant was loaded onto a Ni-NTA gravity column, washed with 10 column volume of lysis buffer and eluted using the elution buffer (50 mM HEPES-NaOH, pH 7.4, 500 mM NaCl, 300 mM imidazole, 0.5 mM TCEP, 5% (v/v) glycerol). The eluted protein was further purified using S200 gel filtration column chromatography (50 mM HEPES-NaOH, pH 7.4, 150 mM NaCl, 0.5 mM TCEP and 5% glycerol). Protein purity was analysed by SDS-PAGE and further confirmed by mass spectrometry. Selected fractions were pooled, concentrated and stored at −80 °C.
(§3) All reagents were purchased from Sigma Aldrich and were of the highest grade available. Ferrous(II) ammonium sulfate (FAS) solutions were prepared freshly by dissolving FAS to 400 mM in 20 mM HCl with subsequent dilution to 1 mM using deionized water. Fresh 2OG (10 mM) and LAA (50 mM) solutions were prepared by dissolving the solids in deionised water. All enzyme reactions were performed in 384-well plates (Greiner Bio-One) with a final reaction volume of 50 μL. Substrate mixtures contained 50 mM HEPES pH 7.5, LAA (100 μM), FAS (10 μM), 2OG (20 μM) and an H1 isoform peptide (10 μM). Reactions were initiated by the addition of enzyme to a final concentration of 2.0 μM. After 2 h, the reactions were stopped by the addition of 5 μL of 10% (v/v) LC-MS grade formic acid (Fisher Scientific) to a final concentration of 1% (v/v). Product analyses were performed by liquid chromatography-mass spectrometry (LC-MS) using an Agilent 1290 infinity II LC system equipped with an Agilent 1290 multisampler and an Agilent 1290 high speed pump and connected to an Agilent 6550 accurate mass iFunnel quadrupole time of flight (Q-TOF) mass spectrometer. 1 μL of the reaction mixture was injected onto a 1.8 μm × 2.1 × 50 mm ZORBAX RRHD Eclipse Plus C18 column (Agilent). Solvent A consisted of HPLC grade water containing 0.1% (v/v) formic acid and solvent B consisted of MeCN containing 0.1% (v/v) formic acid. Peptides were separated using a stepwise gradient (0 min – 95% solvent A, 1.0 min – 80% solvent A, 3.0 min – 45% solvent A, 4.0 min – 45% solvent A, 5.0 min – 0% solvent A, 6.0 min – 0% solvent A, 7.0 min – 95% solvent A). This was followed by a 3 min post-run with 95% solvent A to re-equilibrate the column. All flow rates were 0.2 mL min^−1.

KDM6B = assay: LC-MS demethylation activity assay, KDM6B; type: biochemical, human
Description: as §1, §2
(§4) All reagents were purchased from Sigma Aldrich and were of the highest grade available. Ferrous(II) ammonium sulfate (FAS) solutions were prepared freshly by dissolving FAS to 400 mM in 20 mM HCl with subsequent dilution to 1 mM using deionized water. Fresh 2OG (10 mM) and LAA (50 mM) solutions were prepared by dissolving the solids in deionised water. All enzyme reactions were performed in 384-well plates (Greiner Bio-One) with a final reaction volume of 50 μL. Substrate mixtures contained 50 mM HEPES pH 7.5, LAA (100 μM), FAS (10 μM), 2OG (20 μM) and an H1 isoform peptide (10 μM). Reactions were initiated by the addition of enzyme to a final concentration of 2.0 μM. After 2 h, the reactions were stopped by the addition of 5 μL of 10% (v/v) LC-MS grade formic acid (Fisher Scientific) to a final concentration of 1% (v/v). […]

KDM3C = assay: LC-MS demethylation activity assay, KDM3C; type: biochemical, human
Description: as §1, §2, §4

KDM5D = assay: LC-MS demethylation activity assay, KDM5D; type: biochemical, human
Description: as §1, §2, §4

KDM4A = assay: LC-MS demethylation activity assay, KDM4A; type: biochemical, human
Description: as §1, §2, §3

KDM4D = biological target: T2, KDM4D (Homo sapiens, UniProt Q6B0I6); assay: LC-MS demethylation activity assay, KDM4D; type: biochemical
T2 construct: KDM4AM1-L359,[38]; KDM4DM1-L359,[39]; KDM4EM1-R336,[30]; His6 (N); made in house; host or cells: Escherichia coli
T2 sequence (Q6B0I6 1-359): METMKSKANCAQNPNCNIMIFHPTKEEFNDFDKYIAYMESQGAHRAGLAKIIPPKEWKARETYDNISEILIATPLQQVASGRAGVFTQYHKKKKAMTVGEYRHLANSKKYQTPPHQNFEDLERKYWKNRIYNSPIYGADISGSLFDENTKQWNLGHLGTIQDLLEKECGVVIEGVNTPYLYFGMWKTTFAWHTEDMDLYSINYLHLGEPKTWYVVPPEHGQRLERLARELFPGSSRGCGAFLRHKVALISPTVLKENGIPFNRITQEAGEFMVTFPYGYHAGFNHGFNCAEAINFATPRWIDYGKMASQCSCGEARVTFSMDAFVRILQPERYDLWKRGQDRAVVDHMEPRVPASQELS
Description: as §1, §2, §3

KDM3B = assay: LC-MS demethylation activity assay, KDM3B; type: biochemical, human
Description: as §1, §2, §4

KDM3A = assay: LC-MS demethylation activity assay, KDM3A; type: biochemical, human
Description: as §1, §2, §4

[1] = 2 μM KDM4E, 10 μM peptide, standard conditions, 2 h
[2] = 2 μM KDM, 10 μM H1/H3 peptide, 10 μM FAS, 100 μM LAA, 20 μM 2OG, 50 mM HEPES pH 7.5, 2 h, D (di-) initial methylation state
[3] = 2 μM KDM, 10 μM H1/H3 peptide, 10 μM FAS, 100 μM LAA, 20 μM 2OG, 50 mM HEPES pH 7.5, 2 h, M (mono-) initial methylation state

Substance: ARTKQTARKme2STGGKA [Peptide H3K9me2, histone H3 residues 1-15 peptide with di-methylated K9; positive control, reference compound]
- mono-methylated product formed by KDM4E (KDM4E; [1]): ~64%
- KDM4E demethylation activity, D (KDM4E; [2]): ● [green] (green dots indicate good demethylation (>50% conversion))
- KDM6B demethylation activity, D (KDM6B; [2]): ● [red]
- KDM3C demethylation activity, D (KDM3C; [2]): ● [red]
- KDM5D demethylation activity, D (KDM5D; [2]): ● [red]
- substrate conversion (demethylation) by KDM4A (KDM4A; 2 μM KDM4A, 10 μM peptide, 10 μM FAS, 100 μM LAA, 20 μM 2OG, HEPES pH 7.5, 2 h): ~36%
- KDM4A demethylation activity, D (KDM4A; [2]): ● [yellow] (yellow dots indicate moderate demethylation (<50% conversion))
- substrate conversion (demethylation) by KDM4D (KDM4D; 2 μM KDM4D, 10 μM peptide, 10 μM FAS, 100 μM LAA, 20 μM 2OG, HEPES pH 7.5, 2 h): ~58%
- KDM4D demethylation activity, D (KDM4D; [2]): ● [green] (green dots indicate good demethylation (>50% conversion))
- KDM3B demethylation activity, D (KDM3B; [2]): ● [green] (green dots indicate good demethylation (>50% conversion))
- KDM3A demethylation activity, D (KDM3A; [2]): ● [green] (green dots indicate good demethylation (>50% conversion))

Substance: ARTKQTARKmeSTGGKA [Peptide H3K9me, histone H3 residues 1-15 peptide with mono-methylated K9; positive control, reference compound]
- KDM4E demethylation activity, in words (KDM4E; [1]): lack of activity
- KDM6B demethylation activity, in words (KDM6B; 2 μM KDM6B, 10 μM peptide, standard conditions, 2 h): lack of activity
- KDM6B demethylation activity, M (KDM6B; [3]): ● [red]
- KDM3C demethylation activity, in words (KDM3C; 2 μM KDM3C, 10 μM peptide, standard conditions, 2 h): lack of activity
- KDM3C demethylation activity, M (KDM3C; [3]): ● [red]
- KDM5D demethylation activity, in words (KDM5D; 2 μM KDM5D, 10 μM peptide, standard conditions, 2 h): lack of activity
- KDM5D demethylation activity, M (KDM5D; [3]): ● [red]
- KDM4A demethylation activity, in words (KDM4A; 2 μM KDM4A, 10 μM peptide, standard conditions, 2 h): lack of activity
- KDM4A demethylation activity, M (KDM4A; [3]): ● [red]
- KDM4D demethylation activity, in words (KDM4D; 2 μM KDM4D, 10 μM peptide, standard conditions, 2 h): lack of activity
- KDM4D demethylation activity, M (KDM4D; [3]): ● [red]
- KDM3B demethylation activity, in words (KDM3B; 2 μM KDM3B, 10 μM peptide, standard conditions, 2 h): excellent activity
- KDM3B demethylation activity, M (KDM3B; [3]): ● [green] (green dots indicate good demethylation (>50% conversion))
- KDM3A demethylation activity, in words (KDM3A; 2 μM KDM3A, 10 μM peptide, standard conditions, 2 h): excellent activity
- KDM3A demethylation activity, M (KDM3A; [3]): ● [green] (green dots indicate good demethylation (>50% conversion))
